Tested on: MI rats generated by ischemia reperfusion
Test: Myocardial infarct size by triphenyltetrazolium chloride (TTC) staining
Assay type: in vivo, rat
Settings: IR rats; 250 mg/kg VPA i.p. twice; TTC staining 24 h after injury
Experimental: Myocardial infarct size was determined by triphenyltetrazolium chloride (TTC) staining. The hearts were frozen rapidly and sliced into five 2 mm transverse sections. The sections were incubated at 37° C. with 1% TTC in phosphate buffer (pH 7.4) for 10 min, fixed in 10% formaldehyde solution, photographed and calculated using ImageJ software. The infarct size was expressed as a percentage of infarct volume versus left ventricle volume.

In the case of CCCC(CCC)C(=O)O [VPA, valproic acid], the “infarct size (infarct volume versus left ventricle volume)” value was 19.14±2.89 % of the left ventricle.

Reference: patent US20180325850A1, “VALPROIC ACID FOR TREATMENT OF MYOCARDIAL ISCHEMIA” (The Regents of the University of Michigan, priority 2017, published 2018)
